# Assay results taken from patent US6479487B1, “6, 9-disubstituted 2-[trans-(4-aminocyclohexyl)amino] purines” (Aventis Pharmaceuticals Inc., priority 1998, dated 2002).
# The chains behind the UniProt entries cited, without tags or fusion partners. Where a name states a change or a piece, a line headed by the entry shows the natural chain unless it says otherwise.
# UniProt P11802: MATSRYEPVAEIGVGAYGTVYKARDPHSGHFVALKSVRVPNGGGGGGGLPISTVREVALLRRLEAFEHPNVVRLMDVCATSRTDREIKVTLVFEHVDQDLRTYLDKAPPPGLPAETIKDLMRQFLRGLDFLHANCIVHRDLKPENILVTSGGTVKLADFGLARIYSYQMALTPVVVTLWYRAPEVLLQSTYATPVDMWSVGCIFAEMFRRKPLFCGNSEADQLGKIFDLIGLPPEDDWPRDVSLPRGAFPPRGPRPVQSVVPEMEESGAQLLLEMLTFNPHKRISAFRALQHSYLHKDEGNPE
# Target: T1, cdk4/cyclin D1 (Homo sapiens, UniProt P11802)
# T1 construct: made in house; host or cells: Sf9 insect cells (Bac-to-Bac baculovirus, pFastBac)
# Experiment: Cyclin-dependent Kinase 4 Assay (cdk4/cyclin D1, GST-Rb substrate)
# Type: biochemical
# Conditions: CDK4 Inhibition IC50 (μM), cdk4/cyclin D1 insect cell lysate, 10 μM ATP, 30 min at 37° C., several values = separate determinations
compound,measurement,value
"Cn1cnc2c(NCc3ccccc3)nc(NCCO)nc21 [Olomoucine, 6-(benzylamino)-2-[(2-hydroxyethyl)amino]-9-methylpurine, reference compound]",IC50,> 1000 µM
